# Measurements taken from PubChem BioAssay AID720504 (National Center for Advancing Translational Sciences (NCATS), 2013).
# Protein sequences, listed by entry. Tags and fused reporters are not part of them.
# UniProt P53350, whole entry, looked up: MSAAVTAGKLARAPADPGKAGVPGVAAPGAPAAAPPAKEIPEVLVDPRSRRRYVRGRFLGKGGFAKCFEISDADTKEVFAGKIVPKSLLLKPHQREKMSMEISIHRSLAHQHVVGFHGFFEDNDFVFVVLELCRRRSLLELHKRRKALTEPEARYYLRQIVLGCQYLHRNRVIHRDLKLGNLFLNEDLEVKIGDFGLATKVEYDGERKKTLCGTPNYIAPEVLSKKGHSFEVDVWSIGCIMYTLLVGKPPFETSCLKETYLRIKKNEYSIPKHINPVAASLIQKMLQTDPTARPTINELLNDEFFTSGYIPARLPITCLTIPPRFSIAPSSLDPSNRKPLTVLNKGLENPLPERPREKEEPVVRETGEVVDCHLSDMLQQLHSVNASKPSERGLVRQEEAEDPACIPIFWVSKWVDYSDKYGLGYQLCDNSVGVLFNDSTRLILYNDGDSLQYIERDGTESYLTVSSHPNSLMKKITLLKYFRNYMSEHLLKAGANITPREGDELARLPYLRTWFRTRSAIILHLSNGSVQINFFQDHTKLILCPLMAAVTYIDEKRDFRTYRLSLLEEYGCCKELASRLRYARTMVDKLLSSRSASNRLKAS
# Among all 360,000 compounds or so, about 10,000 (2.8%) were called active. These results got no clear call from the source, so the numbers are uncertain. Calls follow the shape of the dose curve; as a rule, active = well fitted inhibition curve with a large enough effect; inconclusive = small, poorly fitted or top-dose-only effect; inactive = flat fitted curve, though single readings scatter.
# Biological target: Serine/threonine-protein kinase PLK1 (Homo sapiens) (UniProt P53350)
# Assay: qHTS for Inhibitors of PLK1-PDB (polo-like kinase 1 - polo-box domain): Primary Screen; also: nearly all actives have a fitted effect of over 65% in size
# Conditions: Plk1 PBD binding of FITC phosphopeptide, fluorescence polarization
# Potency is read from the fitted curve at half-maximal effect.
row,Structure (SMILES),Potency
1,Clc1ccc(Cl)c(NC2=NCC(CBr)S2)c1 (configuration not stated),inconclusive: 13.4 µM
2,CC(=O)Nc1ccc([As](=O)(O)O)cc1,inconclusive: 23.8 µM
3,CC(=O)NC(SC(=S)N(C)C)C(Cl)(Cl)Cl (configuration not stated),inconclusive: 29.9 µM
4,CCOP1(=S)c2c(C)nn(CCC#N)c2N=C(c2ccc(F)cc2)N1C (configuration not stated),inconclusive: 21.2 µM
5,CC(C)(C)C(=O)NC(Sc1ncccn1)C(Cl)(Cl)Cl (configuration not stated),inconclusive: 16.8 µM
6,CCC(C)N(CC(C)C)C(=S)SC(NC(C)=O)C(Cl)(Cl)Cl (configuration not stated),inconclusive: 18.9 µM
7,COc1ccc2nc(NP(=O)(c3ccccc3)c3ccccc3)sc2c1,inconclusive: 2.67 µM
